Laboratory results reported in patent US5618915.

How the values were obtained:
[1] = molecular target: human plasma kallikrein (human) (UniProt P03952); assay: inhibition of amidolytic activity (substrate S2302), graphical Dixon method
[2] = molecular target: bovine factor Xa (bovine) (UniProt P00743)
[3] = molecular target: recombinant human protein Ca (human) (UniProt P04070); assay: inhibition of amidolytic activity (substrate S2366), graphical Dixon method
[4] = molecular target: bovine factor Xa (bovine) (UniProt P00743); assay: inhibition of amidolytic activity (substrate FXa-1), graphical Dixon method
[5] = molecular target: recombinant human protein Ca (human) (UniProt P04070)
[6] = molecular target: human plasma kallikrein (human) (UniProt P03952); assay: inhibition of amidolytic activity (substrate S2302)

Ki [1] [nM]	Ki (nM); amidolytic activity of FXa (substrate FXa-1) [2] [nM]	Ki [3] [nM]	Ki [4] [nM]	fold stronger inhibition than the Arg 15 analogue (KFN 772) [6] [fold]	Substance	Ki (nM); amidolytic activity of protein Ca (substrate S2366) [5] [nM]
1	1800	10	1800	–	aprotinin (3-58; 15 Arg+42 Ser)	–
0.1	150	100	150	10	aprotinin (3-58; 15 Arg+17 Ala+42 Ser)	–

Substance	Ki [1] [nM]	Ki (nM); amidolytic activity of FXa (substrate FXa-1) [2] [nM]	Ki [3] [nM]	Ki [4] [nM]	fold stronger inhibition than the Arg 15 analogue (KFN 772) [6] [fold]	Ki (nM); amidolytic activity of protein Ca (substrate S2366) [5] [nM]
native, bovine pancreatic aprotinin (1-58)	180	–	400	–	–	400
